Results: paper PMC9699089 (Pathogens, 2022)

Assays:
[1] = system: Plasmodium falciparum CQ-resistant strain W2; experiment: In vitro antiplasmodial activity, SYBR Green I fluorescence-based method, strain W2; type: cell-based; details: SI = CC50 HepG2 / IC50 P. falciparum W2
Description: (§1) The in vitro antiplasmodial activities were tested over concentrations ranging from 39 nM to 40 µM against culture-adapted Plasmodium falciparum reference strains 3D7 and W2. […] These two strains are obtained from the collection of the National Museum of Natural History (Paris, France). The parasites were cultivated in RPMI medium (Sigma Aldrich, Lyon, France) supplemented with 0.5% Albumax I (Life Technologies Corporation, Paisley, UK), hypoxanthine (Sigma Aldrich), and gentamicin (Sigma Aldrich) with human erythrocytes and were incubated at 37 °C in a candle jar, as described previously. The P. falciparum drug susceptibility test was carried out in 96-well flat bottom sterile plates in a final volume of 250 µL. After 48 h incubation period with the drugs, quantities of DNA in treated and control cultures of parasites in human erythrocytes were quantified using the SYBR Green I (Sigma Aldrich) fluorescence-based method. Briefly, after incubation, plates were frozen at -20 °C until use. Plates were then thawed for 2 h at room temperature, and 100 µL of each homogenized culture was transferred to a well of a 96-well flat bottom sterile black plate (Nunc, Inc.) that contained 100 µL of the SYBR Green I lysis buffer (2xSYBR Green, 20 mM Tris base pH 7.5, 5 mM EDTA, 0.008% w/v saponin, 0.08% w/v Triton X-100). […] Plates were incubated for 1 h at room temperature and then read on a fluorescence plate reader (Tecan, Austria) using excitation and emission wavelengths of 485 and 535 nm, respectively.

[2] = system: Plasmodium falciparum CQ-sensitive strain 3D7; experiment: In vitro antiplasmodial activity, SYBR Green I fluorescence-based method, strain 3D7; type: cell-based; details: SI = CC50 HepG2 / IC50 P. falciparum 3D7
Description: as §1

[3] = system: T. brucei brucei AnTat 1.9; experiment: In vitro antitrypanosomal activity, Alamar Blue assay; type: cell-based; details: SI = CC50 HepG2 / IC50 Trypanosoma brucei brucei
Description: The effects of the tested compounds on the growth of T. brucei brucei were assessed using an Alamar Blue® assay described by Räz et al. T. brucei brucei AnTat 1.9 ([…], Belgium) was cultured in MEM with Earle's salts, supplemented according to the protocol of Baltz et al. […] All doses were tested in duplicate. Appropriate controls treated with solvents 0.9% NaCl or DMSO or with suramin, pentamidine, eflornithine, and fexinidazole (reference drugs purchased from Sigma Aldrich and Fluorochem, UK) were added to each set of experiments. After 69 h incubation period at 37 °C, 10 μL of the viability marker Alamar Blue (Fisher) was added to each well, and the plates were incubated for 5 h. The plates were read in a PerkinElmer ENSPIRE (Germany) microplate reader using an excitation wavelength of 530 nm and an emission wavelength of 590 nm.

[4] = Cytotoxicity evaluation, MTT assay; type: cell-based; details: human
Description: These cells are a commonly used human hepatocarcinoma-derived cell line that has characteristics similar to those of primary hepatocytes. These cells express many hepatocyte-specific metabolic enzymes, thus enabling the cytotoxicity of tested product metabolites to be evaluated. […] Duplicate assays were performed for each sample. Each well was microscopically examined for precipitate formation before the medium was aspirated from the wells. After aspiration, 100 µL of MTT solution (0.5 mg/mL in medium without FCS) were then added to each well. […] The MTT solution was removed, and DMSO (100 µL) was added to dissolve the resulting blue formazan crystals. Plates were shaken vigorously (300 rpm) for 5 min. The absorbance was measured at 570 nm with 630 nm as reference wavelength in a BIO-TEK ELx808 Absorbance Microplate Reader. DMSO was used as blank and doxorubicin (Sigma Aldrich) as positive control. Cell viability was calculated as percentage of control (cells incubated without compound). The CC50 was determined from the dose-response curve using TableCurve 2D V5.0 software (Systat Software, Palo Alto, CA, USA).

[5] = system: L. donovani (MHOM/IN/00/DEVI) promastigotes; experiment: In vitro antileishmanial activity on promastigotes, MTT assay; type: cell-based, Leishmania donovani; details: SI = CC50 HepG2 / IC50 L. donovani
Description: L. donovani (MHOM/IN/00/DEVI) used in this study was provided by the CNR Leishmania (Montpellier, France). The effects of the tested compounds on the growth of L. donovani (MHOM/IN/00/DEVI) promastigotes were assessed by MTT assay. Briefly, promastigotes in log-phase in Schneider’s medium supplemented with 20% fetal calf serum (FCS), 2 mM L-glutamine and antibiotics (100 U/mL penicillin and 100 µg/mL streptomycin), were incubated at an average density of 10^6 parasites/mL in sterile 96-well plates with various concentrations of compounds previously dissolved in DMSO (final concentration less than 0.5% v/v), in duplicate. Appropriate controls treated with DMSO, pentamidine, and amphotericin B (reference drugs purchased from Sigma Aldrich) were added to each set of experiments. Duplicate assays were performed for each sample. After the 72 h incubation period at 27 °C, parasite metabolic activity was determined. Each well was microscopically examined for precipitate formation. To each well was added 10 µL of 10 mg/mL MTT [3-(4,5-dimethylthiazol-2-yl)-2,5-diphenyltetrazolium bromide)] solution followed by 4 h incubation time. The enzyme reaction was stopped by addition of 100 µL of 50% isopropanol/10% sodium dodecyl sulfate. Plates were vigorously shaken (300 rpm) for 10 min, and the absorbance was measured at 570 nm with 630 nm as reference wavelength in a BIOTEK ELx808 Absorbance Microplate Reader (Agilent Technologies, Les Ulis, France). […] IC50 of the parasite’s growth (half maximal inhibitory concentration or IC50 values) were then calculated from the obtained experimental results using a previously described regression program. IC50 values were calculated from three independent experiments.

CN(C)CCNCc1cc(-c2ccccc2)c2ccc3c(-c4ccccc4)cc(CNCCN(C)C)nc3c2n1 [Compound 1a, 2,9-Bis[(2-dimethylaminoethyl)aminomethyl]-4,7-diphenyl-1,10-phenanthroline]
Selectivity Index HepG2/W2 [1]: 6.52
Selectivity Index HepG2/3D7 [2]: 3.62
Selectivity Index HepG2/Tryp. [3]: 9.73
CC50 at 72 h [4]: 6.52 ± 0.61 µM

CN(C)CCCNCc1cc(-c2ccccc2)c2ccc3c(-c4ccccc4)cc(CNCCCN(C)C)nc3c2n1 [Compound 1b, 2,9-Bis[(3-dimethylaminopropyl)aminomethyl]-4,7-diphenyl-1,10-phenanthroline]
Selectivity Index HepG2/W2 [1]: 0.97
Selectivity Index HepG2/3D7 [2]: 0.28
Selectivity Index HepG2/Tryp. [3]: 10.46

CN(C)CCCCNCc1cc(-c2ccccc2)c2ccc3c(-c4ccccc4)cc(CNCCCCN(C)C)nc3c2n1 [Compound 1c, 2,9-Bis[(4-dimethylaminobutyl)aminomethyl]-4,7-diphenyl-1,10-phenanthroline]
Selectivity Index HepG2/W2 [1]: 347.67
Selectivity Index HepG2/3D7 [2]: 1.01
Selectivity Index HepG2/Tryp. [3]: 12.13

CN(C)CCCCCNCc1cc(-c2ccccc2)c2ccc3c(-c4ccccc4)cc(CNCCCCCN(C)C)nc3c2n1 [Compound 1d, 2,9-Bis[(5-dimethylaminopentyl)aminomethyl]-4,7-diphenyl-1,10-phenanthroline]
Selectivity Index HepG2/W2 [1]: 0.95
Selectivity Index HepG2/3D7 [2]: 0.70
Selectivity Index HepG2/Tryp. [3]: 2.36

CN1CCN(CCNCc2cc(-c3ccccc3)c3ccc4c(-c5ccccc5)cc(CNCCN5CCN(C)CC5)nc4c3n2)CC1 [Compound 1e]
Selectivity Index HepG2/W2 [1]: 11.46
Selectivity Index HepG2/3D7 [2]: 4.88
Selectivity Index HepG2/Tryp. [3]: 23.42

CN1CCN(CCCNCc2cc(-c3ccccc3)c3ccc4c(-c5ccccc5)cc(CNCCCN5CCN(C)CC5)nc4c3n2)CC1 [Compound 1f]
Selectivity Index HepG2/W2 [1]: 0.76
Selectivity Index HepG2/3D7 [2]: 0.40
Selectivity Index HepG2/Tryp. [3]: 8.89

CN1CCN(CCCCNCc2cc(-c3ccccc3)c3ccc4c(-c5ccccc5)cc(CNCCCCN5CCN(C)CC5)nc4c3n2)CC1 [Compound 1g]
Selectivity Index HepG2/W2 [1]: 6.75
Selectivity Index HepG2/3D7 [2]: 2.04
Selectivity Index HepG2/Tryp. [3]: 17.45

c1ccc(-c2cc(CNCCN3CCOCC3)nc3c2ccc2c(-c4ccccc4)cc(CNCCN4CCOCC4)nc23)cc1 [Compound 1h]
Selectivity Index HepG2/W2 [1]: 34.64
Selectivity Index HepG2/3D7 [2]: 8.79
Selectivity Index HepG2/L. donovani [5]: 1.31
Selectivity Index HepG2/Tryp. [3]: 26.77

c1ccc(-c2cc(CNCCCN3CCOCC3)nc3c2ccc2c(-c4ccccc4)cc(CNCCCN4CCOCC4)nc23)cc1 [Compound 1i]
Selectivity Index HepG2/W2 [1]: 157.25
Selectivity Index HepG2/3D7 [2]: 4.34
Selectivity Index HepG2/Tryp. [3]: 21.69

c1ccc(-c2cc(CNCCN3CCCCC3)nc3c2ccc2c(-c4ccccc4)cc(CNCCN4CCCCC4)nc23)cc1 [Compound 1j]
Selectivity Index HepG2/W2 [1]: 0.63
Selectivity Index HepG2/3D7 [2]: 1.03
Selectivity Index HepG2/L. donovani [5]: 0.65
Selectivity Index HepG2/Tryp. [3]: 8.20

c1ccc(-c2cc(CNCCCN3CCCCC3)nc3c2ccc2c(-c4ccccc4)cc(CNCCCN4CCCCC4)nc23)cc1 [Compound 1k]
Selectivity Index HepG2/W2 [1]: 2.60
Selectivity Index HepG2/3D7 [2]: 1.35
Selectivity Index HepG2/Tryp. [3]: 5.57

c1ccc(-c2cc(CNCCCN3CCCC3)nc3c2ccc2c(-c4ccccc4)cc(CNCCCN4CCCC4)nc23)cc1 [Compound 1l]
Selectivity Index HepG2/W2 [1]: 505.7
Selectivity Index HepG2/3D7 [2]: 1.53
Selectivity Index HepG2/Tryp. [3]: 13.42

c1ccc(-c2cc(CNCCc3ccccn3)nc3c2ccc2c(-c4ccccc4)cc(CNCCc4ccccn4)nc23)cc1 [Compound 1m]
Selectivity Index HepG2/W2 [1]: 62.0
Selectivity Index HepG2/3D7 [2]: 9.23
Selectivity Index HepG2/Tryp. [3]: 6.89

c1ccc(-c2cc(CNCCc3cccnc3)nc3c2ccc2c(-c4ccccc4)cc(CNCCc4cccnc4)nc23)cc1 [Compound 1n]
Selectivity Index HepG2/W2 [1]: 1.22
Selectivity Index HepG2/3D7 [2]: 4.37
Selectivity Index HepG2/L. donovani [5]: 1.16
Selectivity Index HepG2/Tryp. [3]: 7.21

c1ccc(-c2cc(CNCCc3ccncc3)nc3c2ccc2c(-c4ccccc4)cc(CNCCc4ccncc4)nc23)cc1 [Compound 1o]
Selectivity Index HepG2/W2 [1]: 10.22
Selectivity Index HepG2/3D7 [2]: 26.18
Selectivity Index HepG2/L. donovani [5]: 7.10
Selectivity Index HepG2/Tryp. [3]: 91.0

c1ccc(-c2cc(CNCCCc3ccncc3)nc3c2ccc2c(-c4ccccc4)cc(CNCCCc4ccncc4)nc23)cc1 [Compound 1p]
Selectivity Index HepG2/W2 [1]: 20.97
Selectivity Index HepG2/3D7 [2]: 2.98
Selectivity Index HepG2/Tryp. [3]: 4.68
